The results in this text go back to ChEMBL document CHEMBL3525951, “Reevaluation of the microsomal metabolism of montelukast: major contribution by CYP2C8 at clinically relevant concentrations” (Drug Metab Dispos, 2011).

Sequences of proteins named here, by UniProt entry; tags and fusion partners are left off.
UniProt P20815, whole entry: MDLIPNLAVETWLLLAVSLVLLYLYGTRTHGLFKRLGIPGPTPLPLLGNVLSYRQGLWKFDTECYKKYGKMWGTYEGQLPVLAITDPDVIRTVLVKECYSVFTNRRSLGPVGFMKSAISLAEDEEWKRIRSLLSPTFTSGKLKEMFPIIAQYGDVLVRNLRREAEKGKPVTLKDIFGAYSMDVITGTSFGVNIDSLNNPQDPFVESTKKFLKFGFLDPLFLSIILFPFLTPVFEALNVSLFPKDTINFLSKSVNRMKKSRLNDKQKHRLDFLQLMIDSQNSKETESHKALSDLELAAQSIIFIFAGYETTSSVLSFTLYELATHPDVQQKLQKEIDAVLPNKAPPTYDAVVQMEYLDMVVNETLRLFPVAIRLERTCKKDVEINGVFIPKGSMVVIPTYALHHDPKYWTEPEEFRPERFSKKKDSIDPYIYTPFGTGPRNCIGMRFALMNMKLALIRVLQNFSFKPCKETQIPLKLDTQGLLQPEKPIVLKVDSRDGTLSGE

Type in all cases: ADME
The target in series [1] is T1, Cytochrome P450 3A5 (Homo sapiens, UniProt P20815). The experiment in a line: Activity of recombinant human CYP3A5 expressed in microsomes isolated from baculovirus infected insect cell assessed as enzyme-mediated (R)-2-(1-((1-(3-(2-(7-chloroquinolin-2-yl)vinyl)phenyl)-3-(4-hydroxy-2-(2-hydroxypropan-2-yl)phenyl)propylthio)methyl)cyclopropyl)acetic acid formation at 1 uM after 60 mins by LC-MS analysis. The following applies: 1 h.

The target in series [2] is T1, Cytochrome P450 3A5. The experiment in a line: Activity of recombinant human CYP3A5 expressed in microsomes isolated from baculovirus infected insect cell assessed as enzyme-mediated compound depletion at 0.02 uM after 30 mins by LC-MS analysis. Conditions: 0.5 h.
Series [3] deals with T1, Cytochrome P450 3A5. The series is described as follows: Activity of recombinant human CYP3A5 expressed in microsomes isolated from baculovirus infected insect cell assessed as enzyme-mediated 2-(1-(((1R)-1-(3-(2-(7-chloroquinolin-2-yl)vinyl)phenyl)-3-hydroxy-3-(2-(2-hydroxypropan-2-yl)phenyl)propylthio)methyl)cyclopropyl)acetic acid formation at 1 uM after 60 mins by LC-MS analysis. The following applies: 1 h.

The target in series [4] is T1, Cytochrome P450 3A5. The series is described as follows: Activity of recombinant human CYP3A5 expressed in microsomes isolated from baculovirus infected insect cell assessed as intrinsic clearance for enzyme-mediated 2-(1-(((1R)-1-(3-(2-(7-chloroquinolin-2-yl)vinyl)phenyl)-3-(2-(1,2-dihydroxypropan-2-yl)phenyl)propylthio)methyl)cyclopropyl)acetic acid formation by measuring Vmax/Km at 0.02 uM.

On to `CC(C)(O)c1ccccc1CC[C@@H](SCC1(CC(=O)[O-])CC1)c1cccc(/C=C/c2ccc3ccc(Cl)cc3n2)c1.[Na+]` [MONTELUKAST SODIUM], for which the Drug metabolism result on Cytochrome P450 3A5 [1], on Cytochrome P450 3A5 [2] and at Cytochrome P450 3A5 [3] was “metabolite_detected” in each case. Further, the CL on Cytochrome P450 3A5 [4] was 0.16 mL/min/nmol.
